{"sequences": {"note": "Protein sequences, listed by entry. Tags and fused reporters are not part of them.", "UniProt P45983, whole entry": "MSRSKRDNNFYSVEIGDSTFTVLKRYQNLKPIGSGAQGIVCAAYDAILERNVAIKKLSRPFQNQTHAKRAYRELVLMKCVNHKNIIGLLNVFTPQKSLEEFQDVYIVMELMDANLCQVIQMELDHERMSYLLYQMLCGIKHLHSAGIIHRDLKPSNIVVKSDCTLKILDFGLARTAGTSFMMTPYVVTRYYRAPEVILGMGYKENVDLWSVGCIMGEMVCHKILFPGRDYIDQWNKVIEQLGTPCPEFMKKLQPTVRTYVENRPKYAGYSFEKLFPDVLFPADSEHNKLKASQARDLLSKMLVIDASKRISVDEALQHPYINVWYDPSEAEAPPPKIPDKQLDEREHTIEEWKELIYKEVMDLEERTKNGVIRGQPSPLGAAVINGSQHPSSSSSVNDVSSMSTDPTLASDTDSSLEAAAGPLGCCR", "UniProt P45984, whole entry": "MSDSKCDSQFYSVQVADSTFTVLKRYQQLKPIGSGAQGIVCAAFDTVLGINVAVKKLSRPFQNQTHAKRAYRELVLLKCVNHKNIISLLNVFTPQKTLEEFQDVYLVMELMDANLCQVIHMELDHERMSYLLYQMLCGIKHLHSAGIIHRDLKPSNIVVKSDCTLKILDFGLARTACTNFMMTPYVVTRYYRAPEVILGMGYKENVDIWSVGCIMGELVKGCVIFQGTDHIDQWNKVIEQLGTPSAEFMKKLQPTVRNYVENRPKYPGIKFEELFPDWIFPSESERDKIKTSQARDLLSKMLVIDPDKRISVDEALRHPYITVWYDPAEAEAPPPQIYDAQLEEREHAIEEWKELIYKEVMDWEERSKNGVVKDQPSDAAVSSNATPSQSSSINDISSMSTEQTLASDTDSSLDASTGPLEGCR"}, "source": "patent US8178552B2", "about": "“7-Azaindole derivatives and their use in the inhibition of c-Jun N-terminal kinase” (Eisai R&D Management Co., Ltd., priority 2008, dated 2012)", "key": {"[1]": {"target": "JNK1 (Homo sapiens, UniProt P45983)", "assay": "JNK1 SPA assay", "assay_type": "biochemical", "conditions": "read-out: JNK1 IC50; 2 μM ATP, GST-c-Jun substrate"}, "[2]": {"target": "JNK2 (Homo sapiens, UniProt P45984)", "assay": "JNK2 SPA assay", "assay_type": "biochemical", "conditions": "read-out: JNK2 IC50; 3.33 μM ATP, GST-c-Jun substrate"}, "[3]": {"system": "panel of 100 kinases", "conditions": "calculated from remaining activity at 1 micromolar compound, 10 micromolar ATP, 0 = non-selective, 1 = perfect selectivity"}}, "data": [{"smiles": "Cn1cc(-c2c[nH]c3ncc(C4=CCCC4)cc23)cn1", "note": "[Compound I-10, 5-cyclopentenyl-3-(1-methyl-1H-pyrazol-4-yl)-1H-pyrrolo[2,3-b]pyridine]", "values": [{"measurement": "IC50", "setting": "[1]", "value": 31, "unit": "nM"}, {"measurement": "IC50", "setting": "[2]", "value": 65, "unit": "nM"}]}, {"smiles": "CCNC1CCC(c2cnc3[nH]cc(-c4cnn(C)c4)c3c2)CC1", "note": "(stereo not drawn) [Compound I-55, Ethyl-{4-[3-(1-methyl-1H-pyrazol-4-yl)-1H-pyrrolo[2,3-b]pyridin-5-yl]-cyclohexyl}-amine]", "values": [{"measurement": "IC50", "setting": "[1]", "value": 240, "unit": "nM"}, {"measurement": "IC50", "setting": "[2]", "value": 501, "unit": "nM"}]}, {"smiles": "Cn1cc(-c2c[nH]c3ncc([C@H]4CC[C@@H](N5CCCC5)CC4)cc23)cn1", "note": "[Compound I-23, 3-(1-methyl-1H-pyrazol-4-yl)-5-((1s,4s)-4-(pyrrolidin-1-yl)cyclohexyl)-1H-pyrrolo[2,3-b]pyridine]", "values": [{"measurement": "IC50", "setting": "[1]", "value": 646, "unit": "nM"}, {"measurement": "IC50", "setting": "[2]", "value": 1290, "unit": "nM"}]}, {"smiles": "Cn1cc(-c2c[nH]c3ncc([C@H]4CC[C@@H](N(C)C)CC4)cc23)cn1", "note": "[Compound I-72, (1s,4s)-N,N-dimethyl-4-(3-(1-methyl-1H-pyrazol-4-yl)-1H-pyrrolo[2,3-b]pyridin-5-yl)cyclohexanamine]", "values": [{"measurement": "IC50", "setting": "[1]", "value": 417, "unit": "nM"}, {"measurement": "IC50", "setting": "[2]", "value": 955, "unit": "nM"}]}, {"smiles": "Cn1cc(-c2c[nH]c3ncc([C@H]4CC[C@H](N5CCCC5)CC4)cc23)cn1", "note": "[Compound I-24, 3-(1-methyl-1H-pyrazol-4-yl)-5-((1r,4r)-4-(pyrrolidin-1-yl)cyclohexyl)-1H-pyrrolo[2,3-b]pyridine]", "values": [{"measurement": "IC50", "setting": "[1]", "value": 195, "unit": "nM"}, {"measurement": "IC50", "setting": "[2]", "value": 562, "unit": "nM"}]}, {"smiles": "CN1CCN([C@H]2CC[C@@H](c3cnc4[nH]cc(-c5cnn(C)c5)c4c3)CC2)CC1", "note": "[Compound I-26, 3-(1-methyl-1H-pyrazol-4-yl)-5-((1s,4s)-4-(4-methylpiperazin-1-yl)cyclohexyl)-1H-pyrrolo[2,3-b]pyridine]", "values": [{"measurement": "IC50", "setting": "[1]", "value": 302, "unit": "nM"}, {"measurement": "Gini coefficient, compounds (I), non-aromatic C(5) group", "setting": "[3]", "value": 0.6727}, {"measurement": "IC50", "setting": "[2]", "value": 617, "unit": "nM"}]}, {"smiles": "CN1CCCN([C@H]2CC[C@H](c3cnc4[nH]cc(-c5cnn(C)c5)c4c3)CC2)CC1", "note": "[Compound I-37, 5-((1r,4r)-4-(4-methyl-1,4-diazepan-1-yl)cyclohexyl)-3-(1-methyl-1H-pyrazol-4-yl)-1H-pyrrolo[2,3-b]pyridine]", "values": [{"measurement": "IC50", "setting": "[1]", "value": 186, "unit": "nM"}, {"measurement": "IC50", "setting": "[2]", "value": 178, "unit": "nM"}]}, {"smiles": "CC(C)N1CCN([C@H]2CC[C@@H](c3cnc4[nH]cc(-c5cnn(C)c5)c4c3)CC2)CC1", "note": "[Compound I-44, 5-((1s,4s)-4-(4-isopropylpiperazin-1-yl)cyclohexyl)-3-(1-methyl-1H-pyrazol-4-yl)-1H-pyrrolo[2,3-b]pyridine]", "values": [{"measurement": "IC50", "setting": "[1]", "value": 132, "unit": "nM"}, {"measurement": "IC50", "setting": "[2]", "value": 347, "unit": "nM"}]}, {"smiles": "CN1CCCN([C@H]2CC[C@@H](c3cnc4[nH]cc(-c5cnn(C)c5)c4c3)CC2)CC1", "note": "[Compound I-38, 5-((1s,4s)-4-(4-methyl-1,4-diazepan-1-yl)cyclohexyl)-3-(1-methyl-1H-pyrazol-4-yl)-1H-pyrrolo[2,3-b]pyridine]", "values": [{"measurement": "IC50", "setting": "[1]", "value": 182, "unit": "nM"}, {"measurement": "IC50", "setting": "[2]", "value": 158, "unit": "nM"}]}, {"smiles": "Cn1cc(-c2c[nH]c3ncc([C@H]4CC[C@@H](N5CCC(F)(F)C5)CC4)cc23)cn1", "note": "[Compound I-48, 5-((1s,4s)-4-(3,3-difluoropyrrolidin-1-yl)cyclohexyl)-3-(1-methyl-1H-pyrazol-4-yl)-1H-pyrrolo[2,3-b]pyridine]", "values": [{"measurement": "IC50", "setting": "[1]", "value": 170, "unit": "nM"}, {"measurement": "IC50", "setting": "[2]", "value": 339, "unit": "nM"}]}, {"smiles": "Cn1cc(-c2c[nH]c3ncc([C@H]4CC[C@H](N5CCOCC5)CC4)cc23)cn1", "note": "[Compound I-6, 4-((1r,4r)-4-(3-(1-methyl-1H-pyrazol-4-yl)-1H-pyrrolo[2,3-b]pyridin-5-yl)cyclohexyl)morpholine]", "values": [{"measurement": "Gini coefficient, compounds (I), non-aromatic C(5) group", "setting": "[3]", "value": 0.7173}]}, {"smiles": "CC(C)N1CCN([C@H]2CC[C@H](c3cnc4[nH]cc(-c5cnn(C)c5)c4c3)CC2)CC1", "note": "[Compound I-43, 5-((1r,4r)-4-(4-isopropylpiperazin-1-yl)cyclohexyl)-3-(1-methyl-1H-pyrazol-4-yl)-1H-pyrrolo[2,3-b]pyridine]", "values": [{"measurement": "IC50", "setting": "[1]", "value": 100, "unit": "nM"}, {"measurement": "IC50", "setting": "[2]", "value": 214, "unit": "nM"}]}, {"smiles": "Cn1cc(-c2c[nH]c3ncc([C@H]4CC[C@@H](N5CCOCC5)CC4)cc23)cn1", "note": "[Compound I-7, 4-((1s,4s)-4-(3-(1-methyl-1H-pyrazol-4-yl)-1H-pyrrolo[2,3-b]pyridin-5-yl)cyclohexyl)morpholine]", "values": [{"measurement": "IC50", "setting": "[1]", "value": 98, "unit": "nM"}, {"measurement": "Gini coefficient, compounds (I), non-aromatic C(5) group", "setting": "[3]", "value": 0.7006}, {"measurement": "IC50", "setting": "[2]", "value": 162, "unit": "nM"}]}, {"smiles": "Cn1cc(-c2c[nH]c3ncc([C@H]4CC[C@H](N5CCCOCC5)CC4)cc23)cn1", "note": "[Compound I-40, 4-((1r,4r)-4-(3-(1-methyl-1H-pyrazol-4-yl)-1H-pyrrolo[2,3-b]pyridin-5-yl)cyclohexyl)-1,4-oxazepane]", "values": [{"measurement": "Gini coefficient, compounds (I), non-aromatic C(5) group", "setting": "[3]", "value": 0.7684}]}, {"smiles": "Cn1cc(-c2c[nH]c3ncc([C@H]4CC[C@@H](N5CCCOCC5)CC4)cc23)cn1", "note": "[Compound I-39, 4-((1s,4s)-4-(3-(1-methyl-1H-pyrazol-4-yl)-1H-pyrrolo[2,3-b]pyridin-5-yl)cyclohexyl)-1,4-oxazepane]", "values": [{"measurement": "IC50", "setting": "[1]", "value": 316, "unit": "nM"}, {"measurement": "Gini coefficient, compounds (I), non-aromatic C(5) group", "setting": "[3]", "value": 0.7661}, {"measurement": "IC50", "setting": "[2]", "value": 562, "unit": "nM"}]}, {"smiles": "Cn1cc(-c2c[nH]c3ncc(C4CCCCC4)cc23)cn1", "note": "[Compound I-16, 5-cyclohexyl-3-(1-methyl-1H-pyrazol-4-yl)-1H-pyrrolo[2,3-b]pyridine]", "values": [{"measurement": "IC50", "setting": "[1]", "value": 74, "unit": "nM"}, {"measurement": "Gini coefficient, compounds (I), non-aromatic C(5) group", "setting": "[3]", "value": 0.5745}, {"measurement": "IC50", "setting": "[2]", "value": 135, "unit": "nM"}]}, {"smiles": "Cn1cc(-c2c[nH]c3ncc([C@H]4CC[C@H](N(C)C)CC4)cc23)cn1", "note": "[Compound I-71, (1r,4r)-N,N-dimethyl-4-(3-(1-methyl-1H-pyrazol-4-yl)-1H-pyrrolo[2,3-b]pyridin-5-yl)cyclohexanamine]", "values": [{"measurement": "IC50", "setting": "[1]", "value": 170, "unit": "nM"}, {"measurement": "IC50", "setting": "[2]", "value": 603, "unit": "nM"}]}]}
